This is a selection: effects in other tests are not listed, and their absence says nothing.
Experiment: Cytotoxicity against human Hep2 cells
Format: cell-based
Conditions: hep-2

## COC(=O)c1ccc(Cn2c(=O)c3ccccc3n(Cc3nc4ccccc4n3CCN(C)C)c2=O)cc1
  CC50: 3.43 µM

## CN(C)CCn1c(Cn2c(=O)n(Cc3ccc(C(=O)O)cc3)c(=O)c3ccccc32)nc2ccccc21
  CC50: 19.9 µM

Reference: ChEMBL document CHEMBL1149656, “Respiratory syncytial virus fusion inhibitors. Part 6: an examination of the effect of structural variation of the benzimidazol-2-one heterocycle moiety” (Bioorg Med Chem Lett, 2007)
